The results in this text go back to ChEMBL document CHEMBL4052703, “Cyclic tetrapeptide HDAC inhibitors as potential therapeutics for spinal muscular atrophy: Screening with iPSC-derived neuronal cells” (Bioorg Med Chem Lett, 2017).

The assay is filed under the species Homo sapiens. Briefly: Increase in SMN2 mRNA expression in induced pluripotent stem cell derived from human GM03813 cells isolated from SMA patient homozygous for deletion of exons 7 and 8 in SMN1 gene and containing 3 SMN2 gene copies at 1 uM by PCR assay relative to untreated control.

Consider `CCC(=O)CCCCC[C@@H]1NC(=O)[C@H]2CCCCN2C(=O)[C@H]([C@@H](C)CC)NC(=O)[C@H](Cc2cn(OC)c3ccccc23)NC1=O`, for which the fold change (FC) lay in the range of 1 to 1.6.
